# From paper PMC7203245, “Lacosamide intake during pregnancy increases the incidence of foetal malformations and symptoms associated with schizophrenia in the offspring of mice” (Scientific Reports, 2020)
# Assay: LCM and related compounds (RC) in embryos and mothers' serum by high-resolution MS/MSe
# Format: in vivo, mice
# Conditions: dams that received 40 and 80 mg/kg
# Experimental: Samples were extracted as described previously[25] with slight modifications. Briefly, embryos were rinsed with cold saline and ultrapure water, and their wet-weight was determined. […] The mixture was vortexed vigorously for 3 min and centrifuged at 13,000 g for 5 min. The supernatant was transferred to a new Eppendorf tube and evaporated to dryness in a stream of nitrogen gas. The residue was reconstituted with 50 µL of LC-MS Ultrapure water, vortexed for 20 s and centrifuged at 13,000 g for 5 min. The supernatant was transferred to a conic micro insert to be injected onto the UHPLC system.
# MS spectra data were collected between m/z 50 and 1000, and MS/MS spectra were registered between 50-300 Da. […] The MS^e procedure was used to identify metabolites in positive ionization mode. UPLC–QTOF-MS^e detection collects data using two scan functions, providing fragment ion information without precursor ion selection. A characteristic m/z in the low energy function allows identification through the fragment ions obtained with the high collision energy function. Two functions were acquired at different collision energies: a low energy function obtained at 2 eV; and a high-energy function obtained using a collision energy ramp ranging from 15 to 30 eV and spectra data collected between m/z 50 and 800. […]
substance,measurement,value
acetylacosamide,presence in maternal samples,none of the maternal samples contained
